The record followed here is US20210188983A1, “POLYPEPTIDES FOR PREPARING DRUG CONJUGATES CAPABLE OF PROMOTING APOPTOSIS IN A CELL EXPRESSING AN OREXIN RECEPTOR” (UNIVERSITE DE MONTPELLIER, priority 2016, published 2021).

The target in the test is orexin receptor-1 (OX1R) (UniProt O43613). Briefly: cell-based or functional assay.
Cetux F(ab)2-(LC)-… gave an Inhibition of cell growth, % (HEK-OX1R cells, 0.1 µM, 48 h) of 35%. The value for Cetux F(ab)-(LC)-… (Fab) was 26%; that for Cetux mAb-(HC)-… (antibody) was 30%. The substance Cetux mAb-(LC + HC)-… (antibody) had an Inhibition of cell growth, % (HEK-OX1R cells, 0.1 µM, 48 h) of 37%. The value for Cetux mAb-(LC)-…(OxA) (antibody) was 38%.

Take Cetux mAb-click-…-NH2 (antibody): the Inhibition of cell growth, % (HEK-OX1R cells, 0.1 µM, 48 h) came out at 52%.
